Data: paper PMC7765948, “Spadin Modulates Astrocytic Passive Conductance via Inhibition of TWIK-1/TREK-1 Heterodimeric Channels” (International Journal of Molecular Sciences, 2020)

Columns and labels:
[1] = test system: TREK-1 in hippocampal pyramidal neurons in TREK-1 KO mice; settings: cited from earlier work
From the text: Based on our results and other reports regarding the inhibitory effects of spadin on TREK-1 homodimeric and TREK-1 ...

TRESK = settings: heterologous systems; cited from earlier work
From the text: (§1) The activity of TWIK-1 homodimeric channels was not modulated by spadin, but concatenated TWIK-1-TREK-1 heterodimeric channels were inhibited (Figure 5). Since K2P heterodimeric channels are known to be regulated by regulators specific only for single subunit isoforms, even if the TWIK ...

TASK-1 = settings: heterologous systems; cited from earlier work
From the text: as §1

[2] = test system: TWIK-1/TREK-1-mediated K^+ currents in cultured astrocytes; test: Whole-cell patch clamp in cultured astrocytes with CRISPR/Cas9 knockout of TREK-1 or TWIK-1; assay type: cell-based, mouse (C57BL/6); settings: 10 µM spadin
Method: (§2) Primary cortical astrocytes were prepared from one day-old male and female C57BL/6 mouse pups culture astrocytes, P1 C57BL/6 J mouse pups. The cerebral cortex was dissected free of adherent meninges, minced and dissociated into single-cell suspension by trituration through a pipette. All experimental procedures described were performed in accordance with the guidelines of Korea University (Seoul, Korea). Dissociated cells were plated onto either 12 mm glass coverslips or six-well plates coated with 0.1 mg/mL Poly-D-Lysine (PDL). Cells were grown in Dulbecco’s modified Eagle’s medium (DMEM, ThermoFisher, Waltham MA, USA) supplemented with 10% heat-inactivated fetal bovine serum, 10% heat-inactivated horse serum, and penicillin–streptomycin. Cultures were maintained at 37 °C in a humidified 5% CO2 incubator. On the third day of culture, cells were washed by repeated pipetting and the media was replaced to remove debris and other floating cells. On the next day (fourth day of culture), the cells were replaced onto glass coverslips (1 × 104 per coverslip) coated with 0.1 mg/mL PDL. During this procedure, cultured astrocytes were transfected with various shRNAs or gRNAs with an optimized voltage protocol (1100 V, 20 pulse width ms, 2 pulses number) using the Neon Electroporation instrument (ThermoFisher, Waltham, MA, USA).
TREK-1 and TWIK-1 were knocked-out in primary cultured astrocytes using CRISPR/Cas9 technology. TREK-1, TWIK-1, and control CRISPR/Cas9 plasmid were purchased from Santa Cruz Biotechnology (Santa Cruz, Dallas, TX, USA; sc-421244, sc-421243, and sc-418922, respectively). Briefly, all plasmids were transfected by electroporation into primary cultured astrocytes. Transfected astrocytes were plated in 60 mm dishes and cultured for 48 h. When different alleles of mutant clones had to be analyzed, target regions were amplified by PCR using 2× TOPsimpleTM DyeMIX-Forte (Enzynomics, Daejeon, Korea), amplicons were cloned using pTOP Blunt V2 (Enzynomics, Daejeon, Korea), and transformed into TOP10 competent cells. Bacterial colonies containing plasmids with inserts were selected by colony-direct PCR, and PCR products were confirmed by DNA sequencing analysis.
(§3) Cultured astrocytes were plated onto coverslips for electrophysiological experiments. The standard solution for the pipette contained (in mM): 150 KCl, 1 CaCl2, 1 MgCl2, 5 EGTA, and 10 HEPES (pH 7.2, adjusted with KOH). Standard bath solution contained (in mM): 150 NaCl, 3 KCl, 2 CaCl2, 1 MgCl2, 10 HEPES, 5.5 D-glucose, and 20 sucrose (pH 7.4, adjusted with NaOH). Patch pipettes were made from borosilicate glass capillaries (Warner Instruments, Washington, DC, USA). The pipette resistance was 5–6 MΩ. Whole-cell currents were recorded using a patch clamp amplifier (Axopatch 700B, Axon Instruments, Union City, CA, USA). Current–voltage relations were measured by applying ramped pulses (from −150 mV to +50 mV over 1000-ms) from a holding potential of −60 mV. A Digidata 1550 A interface (Axon Instruments, Union City, CA, USA) was used to convert digital–analog signals between the amplifier and computer. Data were sampled at 5 kHz and filtered at 1 kHz. Currents were analyzed with Clampfit software (Axon Instruments, Union City, CA, USA). […] Different concentrations of spadin were sequentially bath-applied from low concentration to high concentration by switching solenoid valves using a gravity-fed perfusion system (VC-6M, Harvard Apparatus, Holliston, MA, USA). Whole-cell currents were recorded after 2 min when spadin-contained bath solutions were exchanged. All experiments were conducted at room temperature of 20–22 °C.
(§4) All data are presented as means ± standard error of the mean (s.e.m). The significance of data for comparison was assessed by Student’s t-test (paired t-test) or one-way ANOVA followed by Turkey’s post hoc test, and significance levels are given as: n.s: not significant, * p < 0.05, ** p < 0.01, *** p < 0.001, and **** p < 0.0001. […]

TREK-1 [3] = settings: cited from earlier work
Method: Because of the typical linear I–V relationship of astrocytic passive conductance, it has been speculated that astrocytic passive conductance is carried by non-voltage-gated K^+ channels.

TREK-1 [4] = settings: cited from earlier work; remark: listed apart in the source
From the text: It is well known that TREK-1 activity is modulated by multiple signals such as mechanostretching, heat, pH changes, polyunsaturated fatty acids, and Gq or Gs-induced phosphorylation. […] Recently, spadin, a ...

[5] = test system: TWIK-1/TREK-1-mediated K^+ currents in cultured astrocytes; test: Whole-cell patch clamp in cultured astrocytes transfected with scrambled, TREK-1 or TWIK-1 shRNA; assay type: cell-based, mouse (C57BL/6)
From the text: For gene silencing in cultured astrocytes and mouse brain slices, TWIK-1 shRNA and TREK-1 shRNA were constructed and the knockdown efficiencies of these shRNAs were validated as described previously. Briefly, the target region of shRNA was as follows: mouse TWIK-1: 5′-[…]-3′; mouse TREK-1: 5′-[…]-3′. These target sequences were inserted into lentiviral pSicoR vector (Addgene okasnud #11579) and Scrambled shRNA-containing pSicoR construct was used as a control. These pSicoR vectors were transfected into primary cultured astrocytes to perform electrophysiological experiments. Transfected primary astrocytes were easily detected under a fluorescence microscope since GFP fluorescent protein is expressed from these pSicoR vectors.
as §2, §3, §4

[6] = TREK-1 shRNA astrocytes, 10 µM spadin

**Q.** With `CC[C@H](C)[C@H](NC(=O)[C@@H]1CCCN1C(=O)CNC(=O)[C@H](CO)NC(=O)[C@H](Cc1c[nH]c2ccccc12)NC(=O)[C@H](CCCNC(=N)N)NC(=O)[C@@H]1CCCN1C(=O)[C@H](CC(C)C)NC(=O)[C@@H]1CCCN1C(=O)[C@H](C)NC(=O)[C@@H](N)Cc1ccc(O)cc1)C(=O)NCC(=O)N[C@H](C(=O)N[C@@H](CO)C(=O)N[C@@H](Cc1c[nH]c2ccccc12)C(=O)NCC(=O)N[C@@H](CC(C)C)C(=O)N[C@@H](CCCNC(=N)N)C(=O)O)C(C)C` [spadin] as the compound, how does the “inhibitory effect on TREK-1 in hippocampal pyramidal neurons” value [1] read?
**A.** inhibitory effects of spadin on TREK-1 were confirmed

**Q.** And the “effect on TRESK” value (TRESK)?
**A.** does not affect

**Q.** What about the “effect on TASK-1” value (TASK-1) of the same compound?
**A.** does not affect

**Q.** What about the “K^+ conductance with spadin” value ([2]; TREK-1 KO astrocytes) of the same compound?
**A.** did not engender further differences in K^+ conductance

**Q.** And the “spadin-sensitive K^+ conductance” value ([2]; TREK-1 KO astrocytes)?
**A.** lost almost all spadin-sensitive K^+ conductance

**Q.** And the “K^+ conductance with spadin” value ([2]; TWIK-1 KO astrocytes)?
**A.** could not induce any further changes to K^+ conductance

**Q.** What about the spadin-sensitive currents ([2]; TWIK-1 KO astrocytes) of the same compound?
**A.** almost disappeared

**Q.** And the “K^+ conductance with spadin” value ([2]; control gRNA astrocytes (TREK-1 KO experiment))?
**A.** huge reduction

**Q.** What about the “K^+ conductance with spadin” value ([2]; control gRNA astrocytes (TWIK-1 KO experiment)) of the same compound?
**A.** wide range of decreases in K^+ conductance

**Q.** What about the “effect of spadin on TREK-1 activity in presence of arachidonic acid” value (TREK-1 [3]; arachidonic acid (AA)) of the same compound?
**A.** enhanced by arachidonic acid (AA)

**Q.** What about the TREK-1 channel inhibition (TREK-1 [3]; heterologous systems) of the same compound?
**A.** dramatically inhibits

**Q.** And the “inhibition of TREK-1 current” value (TREK-1 [4]; 100 nM spadin, TREK-1-transfected COS-7 cells, current stimulated by arachidonic acid)?
**A.** about 60%

**Q.** What about the IC50 (TREK-1 [4]; dose-response of spadin on TREK-1) of the same compound?
**A.** 70.7 nM

**Q.** And the “K^+ conductance with spadin” value ([5]; Sc shRNA control astrocytes (TREK-1 shRNA experiment), 10 µM spadin)?
**A.** dramatically reduced currents in control cells

**Q.** And the “K^+ conductance with spadin” value ([5]; Sc shRNA control astrocytes (TWIK-1 shRNA experiment))?
**A.** drastically reduced

**Q.** And the “K^+ conductance with spadin” value [5, 6]?
**A.** did not affect K^+ conductance

**Q.** And the “spadin-sensitive K^+ conductance” value [5, 6]?
**A.** almost negligible

**Q.** What about the “K^+ conductance with spadin” value ([5]; TWIK-1 shRNA astrocytes) of the same compound?
**A.** did not affect K^+ conductance

**Q.** What about the “spadin-sensitive K^+ conductance” value ([5]; TWIK-1 shRNA astrocytes) of the same compound?
**A.** almost disappeared

**Q.** And the “further current reduction by spadin” value ([5]; double KD of TREK-1 and TWIK-1)?
**A.** did not cause any further current reduction

**Q.** What about the “spadin-sensitive K^+ conductance” value ([5]; double KD of TREK-1 and TWIK-1) of the same compound?
**A.** mostly disappeared
